Experimental data published in ChEMBL document CHEMBL5247605, “Discovery of potent indazole-based human glutaminyl cyclase (QC) inhibitors as Anti-Alzheimer's disease agents” (Eur J Med Chem, 2022).

Protein sequences, listed by entry. Tags and fused reporters are not part of them.
UniProt Q12809, whole entry: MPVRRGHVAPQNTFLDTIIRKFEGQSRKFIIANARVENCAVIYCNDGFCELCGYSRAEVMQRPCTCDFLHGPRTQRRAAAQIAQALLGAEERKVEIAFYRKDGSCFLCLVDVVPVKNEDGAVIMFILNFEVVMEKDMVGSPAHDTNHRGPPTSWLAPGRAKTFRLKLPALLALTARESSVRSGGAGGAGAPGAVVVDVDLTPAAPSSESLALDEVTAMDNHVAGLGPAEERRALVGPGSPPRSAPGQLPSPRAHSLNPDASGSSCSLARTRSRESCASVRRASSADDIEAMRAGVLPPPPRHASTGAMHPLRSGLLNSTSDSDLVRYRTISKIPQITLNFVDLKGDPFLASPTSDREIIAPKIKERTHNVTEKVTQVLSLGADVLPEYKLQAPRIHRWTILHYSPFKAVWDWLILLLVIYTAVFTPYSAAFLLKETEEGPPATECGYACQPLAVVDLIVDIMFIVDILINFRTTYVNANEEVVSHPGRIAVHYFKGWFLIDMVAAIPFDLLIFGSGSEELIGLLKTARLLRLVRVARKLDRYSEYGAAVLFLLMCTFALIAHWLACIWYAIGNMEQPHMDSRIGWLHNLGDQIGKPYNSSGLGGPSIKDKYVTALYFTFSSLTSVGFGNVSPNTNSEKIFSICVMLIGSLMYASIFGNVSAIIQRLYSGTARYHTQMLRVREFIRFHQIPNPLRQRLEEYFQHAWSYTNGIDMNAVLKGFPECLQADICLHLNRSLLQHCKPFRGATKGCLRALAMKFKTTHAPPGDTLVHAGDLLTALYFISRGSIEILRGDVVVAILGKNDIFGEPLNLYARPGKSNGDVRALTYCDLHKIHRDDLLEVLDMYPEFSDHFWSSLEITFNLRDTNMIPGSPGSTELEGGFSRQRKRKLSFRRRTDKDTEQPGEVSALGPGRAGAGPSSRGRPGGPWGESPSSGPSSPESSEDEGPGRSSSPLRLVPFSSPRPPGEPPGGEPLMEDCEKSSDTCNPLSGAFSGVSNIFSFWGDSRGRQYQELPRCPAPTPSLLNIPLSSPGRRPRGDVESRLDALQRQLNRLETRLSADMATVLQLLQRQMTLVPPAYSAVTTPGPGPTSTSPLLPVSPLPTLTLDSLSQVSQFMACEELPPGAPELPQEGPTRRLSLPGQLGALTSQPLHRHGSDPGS

Key:
HT-22 = assay: Cytotoxicity against mouse HT-22 cells assessed as cell viability at 10 uM incubated for 18 hrs by MTT assay relative to control; conditions: ht-22, 18 h
[1] = molecular target: Voltage-gated inwardly rectifying potassium channel KCNH2 (Homo sapiens, UniProt Q12809); assay: Inhibition of hERG at 10 uM by fluorescence polarization assay relative to control

Cc1nn(C)c2cc(N(C(=O)NCCCn3cncc3C)C3CCN(C)CC3)ccc12 showed an Activity (HT-22) of 115% and an inhibition (INH) [1] of 19.2%.

This is a selection: effects in other tests are not listed, and their absence says nothing.
